The values that follow are results of earlier work, collected in PMC10453589.

The data set concerns the target amyloid beta (Homo sapiens) (UniProt P05067).

Regarding calmodulin (from UniProt P0DP23), the Kd (in general, the free concentration of one partner at which half of the binding sites on the other are occupied at equilibrium, for simple one-to-one binding) was 1 nM.
